# Measured values as given in ChEMBL document CHEMBL1134339, “New 1-aryl-3-(4-arylpiperazin-1-yl)propane derivatives, with dual action at 5-HT1A serotonin receptors and serotonin transporter, as a new class of antidepressants” (J Med Chem, 2001).
# Protein sequences, listed by entry. Tags and fused reporters are not part of them.
# UniProt P19327, whole entry: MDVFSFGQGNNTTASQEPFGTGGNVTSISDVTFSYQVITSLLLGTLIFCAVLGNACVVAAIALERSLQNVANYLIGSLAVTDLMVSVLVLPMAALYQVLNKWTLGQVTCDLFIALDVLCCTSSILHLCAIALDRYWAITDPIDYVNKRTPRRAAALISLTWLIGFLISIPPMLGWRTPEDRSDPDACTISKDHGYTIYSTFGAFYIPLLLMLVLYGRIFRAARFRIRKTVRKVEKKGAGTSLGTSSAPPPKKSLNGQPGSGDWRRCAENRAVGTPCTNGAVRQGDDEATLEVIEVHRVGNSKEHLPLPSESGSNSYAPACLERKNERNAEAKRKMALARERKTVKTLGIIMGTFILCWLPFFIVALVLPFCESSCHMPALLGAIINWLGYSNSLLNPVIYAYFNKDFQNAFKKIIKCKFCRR
# Target: 5-hydroxytryptamine receptor 1A (Rattus norvegicus, UniProt P19327)
# Experiment: Binding affinity to 5-hydroxytryptamine 1A receptor (5-HT 1A receptor, serotonin receptor) from rat cortex using [3H]8-OH-DPAT as radioligand
compound,measurement,value
OC(CCN1CCN(c2ccc(Cl)cc2)CC1)c1ccsc1 (stereo unspecified),Ki,2750 nM
